Values of other authors in patent publication US8609661B2, “Pyrimido-pyrrolo-quinoxalinedione inhibitors of cystic fibrosis transmembrane conductance regulator protein and uses therefor” (The Regents of the University of California, priority 2009, dated 2013).

By UniProt entry, the sequences of proteins in these tests, tags left out.
UniProt P13569, whole entry, species assumed: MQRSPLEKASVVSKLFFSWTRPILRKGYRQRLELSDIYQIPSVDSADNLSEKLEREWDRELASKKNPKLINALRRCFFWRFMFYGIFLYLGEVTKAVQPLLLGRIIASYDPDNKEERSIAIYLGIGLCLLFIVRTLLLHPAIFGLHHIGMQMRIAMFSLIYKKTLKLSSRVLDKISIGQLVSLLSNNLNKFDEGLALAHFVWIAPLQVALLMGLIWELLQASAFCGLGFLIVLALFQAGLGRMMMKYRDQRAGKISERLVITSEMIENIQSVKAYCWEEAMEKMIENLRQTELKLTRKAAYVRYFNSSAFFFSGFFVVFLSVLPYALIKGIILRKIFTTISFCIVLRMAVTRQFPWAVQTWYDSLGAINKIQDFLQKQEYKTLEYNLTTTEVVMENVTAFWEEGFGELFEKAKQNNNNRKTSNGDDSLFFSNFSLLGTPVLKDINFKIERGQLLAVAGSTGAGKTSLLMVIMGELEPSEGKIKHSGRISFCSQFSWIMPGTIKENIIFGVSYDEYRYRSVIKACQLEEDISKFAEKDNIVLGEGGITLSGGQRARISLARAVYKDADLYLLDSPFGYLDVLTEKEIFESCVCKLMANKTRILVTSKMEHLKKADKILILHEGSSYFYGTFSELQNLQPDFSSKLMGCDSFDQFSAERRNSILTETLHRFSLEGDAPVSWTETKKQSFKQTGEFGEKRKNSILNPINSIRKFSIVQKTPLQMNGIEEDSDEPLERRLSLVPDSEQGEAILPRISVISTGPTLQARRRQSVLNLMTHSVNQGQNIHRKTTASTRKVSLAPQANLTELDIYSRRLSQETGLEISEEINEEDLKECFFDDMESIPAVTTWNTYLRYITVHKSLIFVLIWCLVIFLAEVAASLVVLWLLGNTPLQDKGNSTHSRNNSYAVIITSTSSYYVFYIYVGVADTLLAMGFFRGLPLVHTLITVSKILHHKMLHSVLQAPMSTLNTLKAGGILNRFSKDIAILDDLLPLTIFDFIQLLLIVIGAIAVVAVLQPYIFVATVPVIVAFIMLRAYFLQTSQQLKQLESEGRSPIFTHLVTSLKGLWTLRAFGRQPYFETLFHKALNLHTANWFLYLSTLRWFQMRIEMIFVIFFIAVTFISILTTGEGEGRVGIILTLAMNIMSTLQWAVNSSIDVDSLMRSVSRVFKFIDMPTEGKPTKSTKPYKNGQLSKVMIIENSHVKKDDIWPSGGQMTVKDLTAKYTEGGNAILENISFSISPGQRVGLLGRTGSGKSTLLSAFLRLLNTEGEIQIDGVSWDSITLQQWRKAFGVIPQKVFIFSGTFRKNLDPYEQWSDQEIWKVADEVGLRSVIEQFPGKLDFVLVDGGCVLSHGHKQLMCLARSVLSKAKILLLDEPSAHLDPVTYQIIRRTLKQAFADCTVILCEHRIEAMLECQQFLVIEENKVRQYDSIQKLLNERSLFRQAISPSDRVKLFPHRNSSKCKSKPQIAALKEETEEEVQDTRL

Molecular target: CFTR (Homo sapiens, UniProt P13569)
Settings: literature; depending on cell type and membrane potential; read-out: IC50 for CFTR chloride conductance block; cited from earlier work

Substance: CFTRinh-172
- IC50: 300 to 3000 nM
